# Hits are enriched below; roughly 3.7% of the tested compounds scored in any of these assays.
# miR-21 FLuc – miR-21 reporter, rising signal; Potency, µM (doses to about 38.3 µM), without a hit: at the top dose reporter change, positive = more light; HeLa miR-21 FLuc reporter, luciferase, 48 h; 340,000 tested, under 10 active; active = well fitted rising curve with a large enough effect; inconclusive = small, poorly fitted or top-dose-only effect; inactive = no such curve, though single readings can be large or run the other way;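 further: % of control where 0% means no effect; miR-21 action dims this reporter so a rising signal means less miR-21 action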
#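 HeLa cells stably expressing CMV-driven firefly luciferase with a downstream miR-21 binding sequence, endogenously expressing miR-21, were treated with titrations (up to about 40uM final) for 48 hours at 37 degree Celsius. Luciferase luminescence was read after lysis.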
# ClpP mod – qHTS Assay for Activators of ClpP; purified B. subtilis ClpP, FRET peptide cleavage, 20 min; Potency, µM (top dose mostly 57.5 µM), without a hit: top-dose activity change, negative = active; hit rate 1.9% among 340,000; AID 651965, 2013; active = well fitted falling curve with a large enough effect; inconclusive = small, poorly fitted or top-dose-only effect; inactive = no such curve, though single readings can be large or run the other way; note: potency is the fitted concentration of half-maximal effect; the source files actives as falling curves though it sought activators and does not explain the sign; nearly all actives have a fitted effect of over 65% in size
#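 FRET quenching reversal measured ClpP activation: 10 microg/mL B. subtilis ClpP at pH 8 with the FRET-FV decapeptide, read at 430 nm after 320 nm excitation. The 20-min minus 0-min signal was scaled between DMSO/no-enzyme wells and ADEP (5.8 microM final).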
# Nrf2 ARE act – activates Nrf2 signaling; AREc32 ARE-luciferase reporter (MCF7-derived line), luminescence, 24 h; AID 624171; hit rate 0.31% among 410,000; Potency, µM (doses to about 46.1 µM), inactives show at the highest dose activation, usual class: activators; note: potency is the fitted concentration of half-maximal effect; % of control where 0% means no effect; nearly all actives have a fitted effect of over 65% in size
#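 AREc32 cells carrying an ARE-driven firefly luciferase reporter were seeded at 1000 cells/well in OPTI-MEM with 5% FBS, then exposed to compound for 24 hr at 37 deg C. Luminescence was read with Steady-Glo after 30 min at RT.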
# Nrf2 inh – blocks Nrf2 signaling; A549 ARE-Fluc reporter, luciferase luminescence, 18-24 h; Potency, µM (titrated, usually from 46 µM), for inactives: at the top dose activity change, negative = inhibition, usual class: inhibitors; hit rate 2.1% among 360,000; AID 504444; note: potency is the fitted concentration of half-maximal effect; % is set by controls: 0 for no effect and ±100 for the full control effect; nearly all actives have a fitted effect of over 60% in size
#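 Quantitative HTS in A549 cells stably bearing an antioxidant response element-firefly luciferase construct. Inhibition of Nrf2-driven transcription was scored by luminescence after 18-24 h of compound exposure at 37 °C.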
# A549 tox – counter-screen for Nrf2 inhibitors: cytotoxicity in A549 cells. A549 ARE-Fluc cells, CellTiter-Fluor viability, 18-24 h. Potency, µM (titrated, usually from 46 µM), for the others: at the top dose activity change, negative = cytotoxicity, most hits filed as inhibitors. hit rate 0.16% among 390,000. AID 504648; note: potency is the fitted concentration of half-maximal effect; % is set by controls: 0 for no effect and ±100 for the full control effect
#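 A549 ARE-Fluc cells in 5% FBS OPTI-MEM, 5000 cells/well, rested 2 h then exposed to compounds in concentration-response for 18-24 h at 37 °C. Viability by CellTiter-Fluor fluorescence (Ex 405/Em 525) after 30 min; luciferase luminescence (BugLite, 15 min, RT) read afterwards.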
# IL2 activator – activates IL-2 in a cell-based reporter assay. hit rate 0.065% among 360,000. AID 652025. activation, % (series mostly up to about 46 µM). IL-2 activation reporter assay, cell-based qHTS; stimulated with anti-CD3/CD4/CD28 beads; in transgenic mouse T cells; in the data active = activation above about 50%; inconclusive = mostly about 30% to 49%; note: 0% is about no effect
#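 Screening format: compound pinned onto unstimulated transgenic mouse T cells, 60 min incubation, then anti-CD3/anti-CD4/anti-CD28 bead stimulation for 18 hours at 37 degrees C, followed by EGFP and DsRed detection.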
# * hit, by the source's call; ? = inconclusive; nt = no result given. Unless noted, calls come from the whole dose curve; as a rule, active = well fitted curve in the direction sought with a large enough effect; inconclusive = small, poorly fitted or top-dose-only effect, or another doubt; inactive = no such curve, though single readings can be large; an effect the other way counts as inactive or inconclusive.
# Values run as follows: miR-21 FLuc, ClpP mod, Nrf2 ARE act, Nrf2 inh, A549 tox, IL2 activator
CCOC(=O)C1=C(C)N(c2ccc(C)c(C)c2)C(=O)/C1=C\c1ccco1
    -13%, 0%, 1%, -19%, -14%, -2
COC(=O)C1=C(C)N(c2ccc(C)c(C)c2)/C(=C/c2ccco2)C1=O
    -2%, nt, 0%, -4%, ?, 71*
CCN(CC)C(=O)c1ccc(C(=O)c2ccccc2)cc1
    -17%, -10%, 0%, 2%, 8%, 1
CCCNC(=O)c1ccc2nc(-c3ccccc3)c(-c3ccccc3)nc2c1
    17%, 28µM*, -1%, ?, -10%, 0
CCN(CC)C(=O)c1ccc2nc(-c3ccccc3)c(-c3ccccc3)nc2c1
    2%, 25µM*, 4%, ?, 1%, -1
CCNC(=O)c1ccc2nc(-c3ccccc3)c(-c3ccccc3)nc2c1
    nt, 4%, nt, -28%, 13%, nt
C=CCOc1ccccc1C1C2=C(CC(C)(C)CC2=O)Nc2c1c(=O)n(C)c(=O)n2C (centres undefined)
    -4%, 28µM*, 2%, 7%, 1%, -4
COc1ccc(C2C3=C(CC(C)(C)CC3=O)Nc3c2c(=O)n(C)c(=O)n3C)cc1OC (centres undefined)
    -2%, 2%, 0%, -12%, 0%, 0
COc1ccc(C(C#N)=C2C=CC(=NO)C=C2)cc1
    ?, nt, 1.3µM*, -4%, -10%, 19
COc1ccc(OC)c(-n2c(C)ccc2-c2ccc(S(C)(=O)=O)cc2)c1
    -10%, 28µM*, ?, nt, 21%, -2
O=C(Nc1cccc(-c2nn3c(=O)cc(N4CCNCC4)nc3s2)c1)c1ccncc1
    nt, nt, nt, 1%, -5%, nt
Clc1nc(-c2ccccn2)nc2scc(-c3ccccc3)c12
    25%, 28µM*, ?, 5%, -8%, -4
O=C(OCC#CCSc1nnc(-c2cccc3ccccc23)o1)C1CCC1
    nt, nt, nt, 7%, 1%, nt
O=C(NN1C(=O)C2C(c3ccccc3)C=CC(c3ccccc3)C2C1=O)c1cccc(Br)c1 (centres undefined)
    -5%, -3%, 11µM*, -8%, 7%, 0
COc1ccccc1N(CC(=O)NCCSc1ccccc1)S(=O)(=O)c1ccc(C)cc1
    27%, -4%, -1%, ?, -11%, nt

# Overlap with the part before: five compounds, followed by the next part.
# Values run as follows: miR-21 FLuc, ClpP mod, Nrf2 ARE act, Nrf2 inh, A549 tox, IL2 activator
O=C(Nc1cccc(-c2nn3c(=O)cc(N4CCNCC4)nc3s2)c1)c1ccncc1
    nt, nt, nt, 1%, -5%, nt
Clc1nc(-c2ccccn2)nc2scc(-c3ccccc3)c12
    25%, 28µM*, ?, 5%, -8%, -4
O=C(OCC#CCSc1nnc(-c2cccc3ccccc23)o1)C1CCC1
    nt, nt, nt, 7%, 1%, nt
O=C(NN1C(=O)C2C(c3ccccc3)C=CC(c3ccccc3)C2C1=O)c1cccc(Br)c1 (centres undefined)
    -5%, -3%, 11µM*, -8%, 7%, 0
COc1ccccc1N(CC(=O)NCCSc1ccccc1)S(=O)(=O)c1ccc(C)cc1
    27%, -4%, -1%, ?, -11%, nt
O=C(CSc1ncnc2[nH]ncc12)Nc1nc(-c2ccc(F)c(F)c2)cs1
    23%, -2%, 7%, 6.5µM*, 7%, -1
CC1Cc2cc(-c3csc(NC(=O)Cc4ccccc4)n3)ccc2N1S(C)(=O)=O (centres undefined)
    27%, -5%, 5%, 15µM*, -24%, 3
COc1ccc(CC(=O)Nc2nc(-c3ccc(F)c(F)c3)cs2)cc1
    19%, nt, 4%, ?, -3%, 2
O=C(Cc1ccc(F)cc1)Nc1nc(-c2ccc(F)c(F)c2)cs1
    21%, 2%, 9%, 23µM*, -29%, -1
Cc1cccc(C)c1NC(=O)CSc1ncnc2[nH]ncc12
    nt, -8%, 0%, -11%, 0%, -4
Cc1cc(C)cc(NC(=O)N2CCN(C)c3ncccc32)c1
    -5%, ?, 0%, 11%, 1%, nt
CCCC(/C=C/c1ccc(OC(C)=O)cc1)=C1/c2ccccc2C(=O)N1c1ccccc1
    nt, 5%, 11µM*, -6%, -13%, -1
OC(COc1ccc(-c2ccccc2)cc1)CN1CCCCC1 (centres undefined)
    nt, 1%, 0%, nt, nt, 2
OC(COc1ccccc1)CN1CCCCC1 (centres undefined)
    nt, 32µM*, 0%, 14%, 10%, -5
O=S(=O)(c1ccccc1)N1CCN(CC(O)COc2ccc3c(c2)CCC3)CC1 (centres undefined)
    9%, -1%, 0%, 16µM*, -21%, 1
COc1ccc(OC(=O)c2nc(SCc3ccccc3F)ncc2Cl)cc1
    -2%, -1%, 1%, 6%, 8%, nt
COc1ccc(C(=O)COC(=O)C2CC3CCCC(C2)C3=O)cc1Br (centres undefined)
    nt, -2%, -1%, 20%, 1%, -5
COc1ccc(C(=O)COC(=O)CN2CC(=O)Oc3ccccc32)cc1Br
    -17%, -4%, 14µM*, 0%, -19%, 3
COC(=O)c1oc(-c2ccc(Cl)cc2)nc1C
    -12%, -2%, 4%, ?, -4%, 0
COC(=O)c1oc(-c2ccccc2)nc1C
    -5%, -4%, 13µM*, 0%, 6%, 0
COc1ccc(OC)c(-c2noc(N3CCN(c4ccc(C(C)=O)cc4)CC3)n2)c1
    -5%, -23%, 10%, -19%, 1%, nt
Cc1cc(=O)n(C(C)Cc2ccccc2)n1C(C)Cc1ccccc1 (centres undefined)
    nt, 32µM*, 3%, 3%, -7%, -3
COc1ccc(NC(=O)CSC2=Nc3ccccc3C3=NC(Cc4ccccc4)C(=O)N23)cc1Cl (centres undefined)
    -7%, -5%, 5%, nt, -27%, nt
CCc1nnc(N2CCN(c3ncnc4c3oc3ccccc34)CC2)s1
    -3%, 0%, 3%, 10µM*, -6%, 0
Cc1c(C(=O)N2CCC(C(=O)Nc3ccc(F)c(Cl)c3)CC2)sc2nc[nH]c(=O)c12
    -4%, 1%, 5%, nt, 4%, nt
O=S1(=O)CCN2C=C(Br)C=C(Br)C2=N1
    -4%, 25µM*, -1%, nt, 14%, -3
Cc1nc(-c2ccc(S(=O)(=O)N3CCN(Cc4ccccc4)CC3)s2)cs1
    6%, -14%, 0%, 16µM*, 3%, 1
C#CC(=O)N(c1cc(OC)ccc1OC)C(C(=O)NC1CCCC1)c1cccs1 (centres undefined)
    20%, -3%, ?, 10µM*, ?, -1
C#CC(=O)N(c1ccc(OC)cc1OC)C(C(=O)NC1CCCC1)c1cccs1 (centres undefined)
    13%, nt, ?, -12%, 4%, -1
Nc1nc(-c2ccccn2)nc(N)c1Cc1ccc(Cl)cc1Cl
    13%, nt, 7%, 6.5µM*, ?, 0
Nc1nc(-c2ccccn2)nc(N)c1Cc1ccccc1F
    23%, nt, 1%, ?, -8%, 0
CC[N+]1(CC)CC2=Cc3c(ccc4ccccc34)CC2C1 (centres undefined)
    9%, 25µM*, 2%, ?, -11%, 0
CN1CC(C(=O)O)Cc2c1ccc1ccccc21 (centres undefined)
    0%, nt, 5%, -5%, -2%, 0
Nc1ccc2c(c1)Cc1c(F)cccc1-2
    nt, nt, 10µM*, ?, 1%, 0
